Target: T1, 15-hydroxyprostaglandin dehydrogenase [NAD(+)] (Homo sapiens, UniProt P15428)
T1 sequence (P15428 whole entry): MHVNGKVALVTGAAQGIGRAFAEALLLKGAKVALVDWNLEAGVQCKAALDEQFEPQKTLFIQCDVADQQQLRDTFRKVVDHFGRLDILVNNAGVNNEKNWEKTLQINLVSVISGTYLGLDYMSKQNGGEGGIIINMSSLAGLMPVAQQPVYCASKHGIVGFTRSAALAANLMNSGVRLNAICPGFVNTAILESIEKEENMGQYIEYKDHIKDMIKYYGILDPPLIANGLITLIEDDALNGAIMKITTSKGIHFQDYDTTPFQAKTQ
Assay: Inhibition of PGDH (unknown origin)

IC50: 2700 nM
SMILES: CC1(COc2ccc(CC3SC(=O)NC3=O)cc2)CCCCC1 (stereo unspecified) [CIGLITAZONE]

Source: ChEMBL document CHEMBL3102731, “Structure-activity relationship studies and biological characterization of human NAD(+)-dependent 15-hydroxyprostaglandin dehydrogenase inhibitors” (Bioorg Med Chem Lett, 2014)
